The EC50 is the midpoint of the concentration-response curve.

Protein sequences, listed by entry. Tags and fused reporters are not part of them.
UniProt Q7Z2W7, whole entry: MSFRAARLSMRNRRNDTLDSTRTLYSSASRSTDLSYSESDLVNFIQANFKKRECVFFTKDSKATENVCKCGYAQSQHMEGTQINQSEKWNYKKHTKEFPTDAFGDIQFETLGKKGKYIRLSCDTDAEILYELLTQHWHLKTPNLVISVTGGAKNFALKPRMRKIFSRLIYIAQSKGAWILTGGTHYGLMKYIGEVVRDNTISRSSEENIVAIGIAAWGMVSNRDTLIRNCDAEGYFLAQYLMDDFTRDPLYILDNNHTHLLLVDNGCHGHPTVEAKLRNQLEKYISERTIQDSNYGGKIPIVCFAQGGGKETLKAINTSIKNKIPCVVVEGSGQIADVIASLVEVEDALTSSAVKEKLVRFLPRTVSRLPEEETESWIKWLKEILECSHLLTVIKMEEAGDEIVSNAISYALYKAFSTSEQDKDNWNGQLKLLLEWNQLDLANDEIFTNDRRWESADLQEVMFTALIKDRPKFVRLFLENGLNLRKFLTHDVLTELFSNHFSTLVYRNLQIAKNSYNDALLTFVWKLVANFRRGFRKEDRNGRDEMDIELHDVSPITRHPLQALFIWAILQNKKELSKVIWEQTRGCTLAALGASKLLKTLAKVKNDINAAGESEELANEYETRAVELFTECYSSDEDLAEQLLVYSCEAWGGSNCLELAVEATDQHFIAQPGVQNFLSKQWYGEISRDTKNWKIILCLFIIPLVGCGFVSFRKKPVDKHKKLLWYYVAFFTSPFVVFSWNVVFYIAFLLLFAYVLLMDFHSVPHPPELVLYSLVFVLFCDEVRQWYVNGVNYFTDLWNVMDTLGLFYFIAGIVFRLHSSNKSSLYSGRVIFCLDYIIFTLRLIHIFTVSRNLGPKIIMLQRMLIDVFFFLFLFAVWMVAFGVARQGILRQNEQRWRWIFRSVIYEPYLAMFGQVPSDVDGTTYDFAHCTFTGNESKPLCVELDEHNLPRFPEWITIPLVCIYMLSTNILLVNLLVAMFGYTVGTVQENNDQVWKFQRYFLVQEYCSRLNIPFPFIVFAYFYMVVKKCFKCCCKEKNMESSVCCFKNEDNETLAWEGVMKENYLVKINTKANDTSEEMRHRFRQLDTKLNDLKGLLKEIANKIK

Each structure is given as a SMILES string.

The target in the assay is human TRPM8 channel (Homo sapiens, UniProt Q7Z2W7). Kind of assay: Intracellular calcium (fluo-4 fluorescence) assay in HEK 293 cells stably expressing human TRPM8. The conditions noted are these: fluo-4 calcium fluorescence, table of Examples 2-12. The text has this:
Humans can detect changes in temperature from noxious cold (<8 C) to noxious heat (>52 C) due to activation of sensory nerve fibers. “The principal temperature sensors in the sensory nerve fibers are members of a family of transient receptor potential (TRP) cation channels” (Voets et al., 2004). In humans the sensation of cooling is elicited by activation of channel TRPM8, which is activated at temperatures below 28 C (Voets et al., 2004). Furthermore human TRPM8 is activated by compounds such as menthol (Brauchi et al., Proc. Natl. Acad. Sci. USA, 2004, Oct. 26; 101 (43):15494-9; Voets et al., Nature, 2004, 430 (7001): 748-54). A heterologous expression system, in which HEK cells stably expressing the human TRPM8 channel, was used to set up a screening system in order to search for compounds that elicit a cooling sensation.
The open reading frame of human cDNA TRPM8 from position 41-3355bp was amplified from a human prostate cDNA library (Stratagene) using primers […] and […] as previously described previously (Tsavalier et al., 2001).
HEK 293 cells were transfected with human TRPM8 cDNA that was cloned into a pcDNA4 vector, using a standard calcium phosphate method (Wigler et al., 1977). The transfected cells were placed under selective pressure by growth in 100 μg/mL zeocin (Invitrogen) and cells stably expressing the human TRPM8 were generated.
Cells stably expressing the human TRPM8 were seeded in a 96 well plate (coated with polylysine) at a density of 10^5 cells /well in 200 μl of media. The next day the cell medium was removed and the cells were incubated a DMEM solution (supplemented with 0.001% BSA w/w, 0.01% FCS v/v, 0.02% plurinoc acid, 1 mM probenicide) that contained the calcium sensitive fluorescent dye fluo-4 (˜3 μM, Molecular Probes) at 37° C. for 1 hr. The dye was then removed and the cells were incubated in a Tyrodes buffer (containing 1 mM probenicide, pH 7.4) pre-equilibrated at a certain temperature (i.e 37° C.) and the intracellular calcium levels were monitored at the same temperature, using the Novostar plate reader. The cells in each well were illuminated at 480 nm, and the fluorescent light emitted at 510 nm was measured. The fluorescence was determined before (basal fluorescence) and after the addition of increasing concentrations of a test compound. The maximal increase in fluorescence (DFmax) caused by a compound, was measured as the peak fluorescence induced by that compound minus the basal fluorescence. The potency of a compound is expressed as the EC50 and it is the concentration of the compound that produces one-half of the maximal response (DFmax).
Background: Calcium flux is commonly read through the fluorescence of an indicator in the cells.
For the compound `N=c1c2c3c(sc2nc2n1CCC2)CCCC3`, the EC50 was found to be 55 µM. With `CCCCn1cnc2sc3c(c2c1=N)CCCCC3`, the EC50 was 25 µM. The same measure for `N=c1c2c3c(sc2ncn1Cc1ccccc1)CCCC3`: 30 µM; for `CC(C)Cn1cnc2sc3c(c2c1=N)CCCCC3`: 70 µM. For `N=c1c2c3c(sc2ncn1CCCn1ccnc1)CCCC3`, the EC50 came to 85 µM.

For the origin of these results see patent publication US7615560B2, “Thienopyrimidines as cooling agents” (Conopco, Inc., priority 2004, dated 2009).
